16 compounds from PMC4896931, “The discovery of 2-substituted phenol quinazolines as potent RET kinase inhibitors with improved KDR selectivity” (European Journal of Medicinal Chemistry, 2016) can be followed below.

Chains of the proteins cited; added tags and fusions are not shown. Residues count along the entry.
UniProt P07949, 29-1114: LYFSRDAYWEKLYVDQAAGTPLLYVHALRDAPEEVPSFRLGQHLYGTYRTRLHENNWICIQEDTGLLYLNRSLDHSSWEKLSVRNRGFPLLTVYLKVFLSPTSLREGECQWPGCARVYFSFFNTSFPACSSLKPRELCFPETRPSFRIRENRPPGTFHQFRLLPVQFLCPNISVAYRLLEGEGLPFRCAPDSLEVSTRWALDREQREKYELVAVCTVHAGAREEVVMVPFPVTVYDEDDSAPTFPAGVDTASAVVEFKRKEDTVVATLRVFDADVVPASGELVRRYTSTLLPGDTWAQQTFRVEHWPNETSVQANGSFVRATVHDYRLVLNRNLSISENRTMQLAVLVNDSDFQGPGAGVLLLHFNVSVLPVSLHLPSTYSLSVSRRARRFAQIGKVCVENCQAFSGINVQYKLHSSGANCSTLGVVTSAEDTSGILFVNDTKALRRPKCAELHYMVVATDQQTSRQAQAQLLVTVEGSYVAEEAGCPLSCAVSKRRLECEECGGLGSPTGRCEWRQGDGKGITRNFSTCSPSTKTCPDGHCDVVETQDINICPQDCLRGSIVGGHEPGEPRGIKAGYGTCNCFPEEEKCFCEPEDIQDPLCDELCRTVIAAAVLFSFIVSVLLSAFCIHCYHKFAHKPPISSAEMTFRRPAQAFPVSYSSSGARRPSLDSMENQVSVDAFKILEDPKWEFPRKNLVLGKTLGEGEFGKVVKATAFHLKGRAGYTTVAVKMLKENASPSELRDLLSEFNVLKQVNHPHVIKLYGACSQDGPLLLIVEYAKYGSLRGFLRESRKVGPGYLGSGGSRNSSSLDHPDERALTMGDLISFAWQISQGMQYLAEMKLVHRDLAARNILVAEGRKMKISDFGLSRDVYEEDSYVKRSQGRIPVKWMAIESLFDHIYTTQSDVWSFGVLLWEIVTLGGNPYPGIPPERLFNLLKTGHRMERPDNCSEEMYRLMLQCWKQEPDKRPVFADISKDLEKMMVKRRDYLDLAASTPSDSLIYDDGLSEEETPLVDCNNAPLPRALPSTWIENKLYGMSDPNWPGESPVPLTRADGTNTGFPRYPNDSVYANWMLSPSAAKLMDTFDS
UniProt P35968, 20-1356: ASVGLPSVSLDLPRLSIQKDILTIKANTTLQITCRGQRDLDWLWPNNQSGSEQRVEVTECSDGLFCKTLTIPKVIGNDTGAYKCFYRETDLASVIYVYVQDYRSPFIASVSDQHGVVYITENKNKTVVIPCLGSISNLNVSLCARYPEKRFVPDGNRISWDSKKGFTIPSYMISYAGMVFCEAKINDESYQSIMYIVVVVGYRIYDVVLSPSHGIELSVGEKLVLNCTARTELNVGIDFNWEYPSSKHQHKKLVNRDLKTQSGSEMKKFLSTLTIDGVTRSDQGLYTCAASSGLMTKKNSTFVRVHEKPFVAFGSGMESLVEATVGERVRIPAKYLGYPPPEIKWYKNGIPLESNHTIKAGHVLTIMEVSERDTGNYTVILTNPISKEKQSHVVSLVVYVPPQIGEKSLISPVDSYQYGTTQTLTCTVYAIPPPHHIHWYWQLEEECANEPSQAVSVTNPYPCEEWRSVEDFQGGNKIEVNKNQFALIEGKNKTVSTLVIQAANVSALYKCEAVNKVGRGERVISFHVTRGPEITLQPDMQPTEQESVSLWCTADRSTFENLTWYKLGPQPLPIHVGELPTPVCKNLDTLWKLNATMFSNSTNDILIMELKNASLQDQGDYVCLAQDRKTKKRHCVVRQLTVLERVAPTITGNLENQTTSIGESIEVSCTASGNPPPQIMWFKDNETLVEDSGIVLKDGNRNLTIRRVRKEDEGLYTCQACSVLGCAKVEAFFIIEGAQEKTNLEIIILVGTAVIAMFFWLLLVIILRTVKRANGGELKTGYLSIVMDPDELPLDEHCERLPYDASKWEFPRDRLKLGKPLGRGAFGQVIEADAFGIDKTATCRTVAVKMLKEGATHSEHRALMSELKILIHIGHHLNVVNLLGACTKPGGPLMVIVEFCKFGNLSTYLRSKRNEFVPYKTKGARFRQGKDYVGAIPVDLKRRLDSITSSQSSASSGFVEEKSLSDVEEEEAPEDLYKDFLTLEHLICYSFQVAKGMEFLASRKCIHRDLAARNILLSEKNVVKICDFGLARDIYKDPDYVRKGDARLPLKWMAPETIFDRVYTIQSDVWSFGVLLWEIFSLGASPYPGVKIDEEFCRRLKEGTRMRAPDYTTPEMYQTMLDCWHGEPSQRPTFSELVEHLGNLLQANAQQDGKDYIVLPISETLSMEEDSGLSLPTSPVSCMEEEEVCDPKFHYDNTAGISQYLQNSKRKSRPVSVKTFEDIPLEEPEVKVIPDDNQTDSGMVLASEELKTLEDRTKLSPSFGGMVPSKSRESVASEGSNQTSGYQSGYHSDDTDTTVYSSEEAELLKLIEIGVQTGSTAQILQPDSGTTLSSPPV

In general, IC50 refers to the midpoint of a concentration-inhibition curve.

One assay addresses RET (Homo sapiens, UniProt P07949). Kind of assay: RET biochemical assay (CisBio HTRF kinEASE). The settings on record: for Biochemical selectivity ratio: as repeated in Table 2 beside the cellular data; for Selectivity (biochemical, RET against KDR): ratio KDR IC50 / RET IC50, biochemical data. In general terms: In TR-FRET formats the signal depends on donor and acceptor labels being close together.

In assay [1] the target is T1, BaF3 cells expressing KIF5B-RET (Homo sapiens, UniProt P07949+P33176).
T1 sequence (P33176+P07949 with tags, fused parts or gaps): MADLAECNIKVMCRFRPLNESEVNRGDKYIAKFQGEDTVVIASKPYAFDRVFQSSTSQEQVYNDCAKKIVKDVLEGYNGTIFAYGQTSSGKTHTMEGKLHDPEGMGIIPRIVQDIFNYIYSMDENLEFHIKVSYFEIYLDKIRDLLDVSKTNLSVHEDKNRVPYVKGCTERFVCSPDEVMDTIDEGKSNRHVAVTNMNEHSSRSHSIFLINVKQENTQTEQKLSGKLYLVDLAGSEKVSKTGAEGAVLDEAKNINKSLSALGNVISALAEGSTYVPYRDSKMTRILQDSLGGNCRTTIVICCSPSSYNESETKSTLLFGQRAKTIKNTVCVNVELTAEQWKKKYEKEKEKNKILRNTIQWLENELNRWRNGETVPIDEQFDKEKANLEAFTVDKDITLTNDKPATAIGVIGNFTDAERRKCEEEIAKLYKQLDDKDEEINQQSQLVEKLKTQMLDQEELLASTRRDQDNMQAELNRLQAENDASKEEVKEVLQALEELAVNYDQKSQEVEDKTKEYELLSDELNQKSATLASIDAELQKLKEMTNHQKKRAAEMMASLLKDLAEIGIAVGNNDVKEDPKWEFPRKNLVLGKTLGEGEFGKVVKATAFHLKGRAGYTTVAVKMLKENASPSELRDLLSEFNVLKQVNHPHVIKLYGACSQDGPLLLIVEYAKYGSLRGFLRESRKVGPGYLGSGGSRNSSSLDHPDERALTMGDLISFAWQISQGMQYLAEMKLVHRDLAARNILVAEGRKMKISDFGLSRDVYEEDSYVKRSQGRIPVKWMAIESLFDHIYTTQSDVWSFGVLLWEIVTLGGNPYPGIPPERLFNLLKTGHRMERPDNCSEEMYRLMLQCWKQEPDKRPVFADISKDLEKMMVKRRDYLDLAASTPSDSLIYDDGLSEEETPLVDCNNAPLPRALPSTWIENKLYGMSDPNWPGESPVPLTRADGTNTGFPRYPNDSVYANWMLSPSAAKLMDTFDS
Kind of assay: BaF3 cellular assay, RET-driven line (CellTiter-Glo viability). The settings on record: for Cell selectivity ratio: ratio KDR IC50 / RET IC50, BaF3 cellular data; for IC50: read-out: RET IC50. Background: In ATP-based viability assays light output follows the ATP content of the culture.

Another assay addresses KDR (Homo sapiens, UniProt P35968).

Consider `COc1cc2ncnc(Nc3ccc(Br)cc3F)c2cc1OC` [Compound 4], for which, on RET, the Biochemical selectivity ratio came to 5 and the “Selectivity (biochemical, RET against KDR)” value amounted to 5. Also, the Cell selectivity ratio in assay [1] was 2.
For `COc1cc2ncnc(Nc3cccc(N)c3)c2cc1OC` [Compound 8], the “Selectivity (biochemical, RET against KDR)” value at RET is given as 13.
Still for that read-out and setting: the figure for `COc1cccc(Nc2ncnc3cc(OC)c(OC)cc23)c1` [Compound 9] is 4.
Take `COc1cc2ncnc(Nc3cccc(O)c3F)c2cc1OC` [Compound 14, 3-((6,7-Dimethoxyquinazolin-4-yl)amino)-2-fluorophenol]: in assay [1], the 50% inhibitory concentration (IC50) is 570 nM.
Turning to `COc1cc2ncnc(Nc3cccc(O)c3OC)c2cc1OC` [Compound 15, 3-((6,7-Dimethoxyquinazolin-4-yl)amino)-2-methoxyphenol], the “Selectivity (biochemical, RET against KDR)” value on RET is recorded as no less than 9.
The same measure, in the same setting: the figure for `COc1cc2ncnc(Nc3cccc(O)c3C(F)(F)F)c2cc1OC` [Compound 17, 3-((6,7-Dimethoxyquinazolin-4-yl)amino)-2-(trifluoromethyl)phenol] is no less than 2.
As for `COc1cc2ncnc(Nc3ccc(C)c(O)c3)c2cc1OC` [Compound 20], on RET, the Biochemical selectivity ratio is 4 and the “Selectivity (biochemical, RET against KDR)” value was determined as 4. Moreover, the Cell selectivity ratio in assay [1] is on record as less than 1.
Turning to `COc1cc2ncnc(Nc3ccc(Cl)c(O)c3)c2cc1OC` [Compound 21], at RET, the Biochemical selectivity ratio worked out at 6 and the “Selectivity (biochemical, RET against KDR)” value is reported as 6. For the same compound, in assay [1], the Cell selectivity ratio was less than 1.
In the case of `COc1cc2ncnc(Nc3cc(O)ccc3F)c2cc1OC` [Compound 25], at RET, the Biochemical selectivity ratio was found to be 18 and the “Selectivity (biochemical, RET against KDR)” value was 18. Further, the Cell selectivity ratio in assay [1] is recorded as 2.
Consider `COc1cc2ncnc(Nc3cc(O)c(F)cc3F)c2cc1OC` [Compound 28], for which, on RET, the Biochemical selectivity ratio is given as 23 and the “Selectivity (biochemical, RET against KDR)” value amounted to 23. For the same compound, the Cell selectivity ratio in assay [1] came out at 1.
In the case of `COc1cc2ncnc(Nc3cc(O)c(C)cc3F)c2cc1OC` [Compound 30], on RET, the Biochemical selectivity ratio worked out at 3 and the “Selectivity (biochemical, RET against KDR)” value was found to be 3. Further, the Cell selectivity ratio in assay [1] is given as less than 1.
`COc1cc2ncnc(Nc3c(Cl)ccc(O)c3F)c2cc1OC` [Compound 34, 4-Chloro-3-((6,7-dimethoxyquinazolin-4-yl)amino)-2-fluorophenol]: the values for the half-maximal inhibitory concentration (IC50) (against KDR; in assay [1]) were 230 nM and 270 nM, respectively.
Take `COc1cc2ncnc(Nc3c(Cl)ccc(O)c3C)c2cc1OC` [Compound 37, 4-Chloro-3-((6,7-dimethoxyquinazolin-4-yl)amino)-2-methylphenol]: at RET, the Biochemical selectivity ratio is listed as no less than 83 and the “Selectivity (biochemical, RET against KDR)” value is on record as no less than 83. The Cell selectivity ratio in assay [1] was no less than 3.
Take `COc1cc2ncnc(Nc3c(Cl)ccc(O)c3Cl)c2cc1OC` [Compound 39, 2,4-Dichloro-3-((6,7-dimethoxyquinazolin-4-yl)amino)phenol]: the IC50 in assay [1] came to 2200 nM.
The same measure, in the same setting: the figure for `COc1cc2ncnc(Nc3c(F)ccc(O)c3Cl)c2cc1OC` [Compound 40, 2-Chloro-3-((6,7-dimethoxyquinazolin-4-yl)amino)-4-fluorophenol] is 260 nM.
As for `COc1cc2ncnc(Oc3cccc(O)c3)c2cc1OC` [Compound 42, 3-((6,7-Dimethoxyquinazolin-4-yl)oxy)phenol], on RET, the “Selectivity (biochemical, RET against KDR)” value came out at 9. Further, the Cell selectivity ratio in assay [1] amounted to 1.
